Measured values from publication PMC9421653 (Journal of Medicinal Chemistry, 2022).

By UniProt entry, the sequences of proteins in these tests, tags left out. Where a name states a change or a piece, a line headed by the entry shows the natural chain unless it says otherwise.
UniProt P04899: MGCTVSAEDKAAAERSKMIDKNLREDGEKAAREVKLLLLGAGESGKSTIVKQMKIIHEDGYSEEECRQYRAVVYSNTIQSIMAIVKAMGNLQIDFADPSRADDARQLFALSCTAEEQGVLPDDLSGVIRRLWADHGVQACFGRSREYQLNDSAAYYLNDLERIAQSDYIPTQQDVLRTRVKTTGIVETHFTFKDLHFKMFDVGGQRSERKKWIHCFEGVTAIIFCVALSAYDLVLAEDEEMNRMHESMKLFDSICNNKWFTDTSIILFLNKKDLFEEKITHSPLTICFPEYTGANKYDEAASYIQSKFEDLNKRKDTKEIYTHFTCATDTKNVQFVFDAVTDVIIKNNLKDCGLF
UniProt Q9NQS5: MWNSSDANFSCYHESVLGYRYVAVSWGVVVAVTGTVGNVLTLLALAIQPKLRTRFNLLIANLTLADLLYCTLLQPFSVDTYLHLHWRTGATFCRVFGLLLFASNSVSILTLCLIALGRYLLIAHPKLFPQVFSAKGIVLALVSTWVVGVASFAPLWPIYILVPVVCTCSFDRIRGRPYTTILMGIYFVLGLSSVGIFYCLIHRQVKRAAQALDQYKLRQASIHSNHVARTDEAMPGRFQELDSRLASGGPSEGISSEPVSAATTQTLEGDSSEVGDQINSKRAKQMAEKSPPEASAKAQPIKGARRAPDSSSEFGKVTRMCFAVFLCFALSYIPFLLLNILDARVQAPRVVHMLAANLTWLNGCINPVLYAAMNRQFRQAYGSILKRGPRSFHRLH

Target: T1, human GPR84 (Homo sapiens, UniProt P04899+Q9NQS5)
T1 construct: expressed in transfected cells; host or cells: Flp-In T-REx 293 cells, doxycycline-induced; membrane preparations
Format: biochemical
Settings: LLE = pIC50 – CLog P

| Compound | LLE |
| --- | --- |
| c1ccc(-c2nnc(CCc3cccnc3)nc2-c2ccccc2)cc1 | 1.55 |
| c1ccc(-c2nnc(NCc3cccnc3)nc2-c2ccccc2)cc1 | 1.94 |
| 3-((5-Phenyl-6-(pyrimidin-2-yl)-1,2,4-triazin-3-yl)methyl)-1H-indole or 3-((6-phenyl-5-(pyrimidin-2-yl)-1,2,4-triazin-3-yl)methyl)-1H-indole | 4.57 |
| COc1ccc(-c2nnc(Cc3c[nH]c4ccccc34)nc2-c2ccc(OC)cc2)cc1 [Compound 1, 3-((5,6-Bis(4-methoxyphenyl)-1,2,4-triazin-3-yl)methyl)-1H-indole] | 3.24 |
| Fc1ccc(-c2nnc(Cc3c[nH]c4ccccc34)nc2-c2ccc(F)cc2)cc1 [Compound 5, 3-((5,6-Bis(4-fluorophenyl)-1,2,4-triazin-3-yl)methyl)-1H-indole] | 2.96 |
| Brc1ccc(-c2nnc(Cc3c[nH]c4ccccc34)nc2-c2ccc(Br)cc2)cc1 [Compound 7, 3-((5,6-Bis(4-bromophenyl)-1,2,4-triazin-3-yl)methyl)-1H-indole] | 1.31 |
| c1ccc(-c2nnc(Cc3c[nH]c4ccccc34)nc2-c2ccccn2)nc1 [Compound 8, 3-((5,6-Di(pyridin-2-yl)-1,2,4-triazin-3-yl)methyl)-1H-indole] | 3.51 |
| CC(C)c1nnc(Cc2c[nH]c3ccccc23)nc1C(C)C [Compound 9, 3-((5,6-Diisopropyl-1,2,4-triazin-3-yl)methyl)-1H-indole] | 1.61 |
| COC(=O)c1ccc(-c2nnc(Cc3c[nH]c4ccccc34)nc2-c2ccc(C(=O)OC)cc2)cc1 [Compound 10, Methyl 4-[3-(1H-Indol-3-ylmethyl)-6-(4-methoxycarbonylphenyl)-1,2,4-triazin-5-yl]benzoate] | 2.16 |
| c1csc(-c2nnc(Cc3c[nH]c4ccccc34)nc2-c2cccs2)c1 [Compound 11, 3-((5,6-Di(thiophen-2-yl)-1,2,4-triazin-3-yl)methyl)-1H-indole] | 3.25 |
| COc1ccc(-c2nnc(Cc3c[nH]c4ccc(F)cc34)nc2-c2ccc(OC)cc2)cc1 [Compound 12, 3-((5,6-Bis(4-methoxyphenyl)-1,2,4-triazin-3-yl)methyl)-5-fluoro-1H-indole] | 1.91 |
| COc1ccc(-c2nnc(Cc3n[nH]c4ccccc34)nc2-c2ccc(OC)cc2)cc1 [Compound 14, 3-((5,6-Bis(4-methoxyphenyl)-1,2,4-triazin-3-yl)methyl)-1H-indazole] | 2.49 |
| c1ccc(-c2nnc(Cc3cnc4ccccn34)nc2-c2ccccc2)cc1 [Compound 20, 3-((5,6-Diphenyl-1,2,4-triazin-3-yl)methyl)imidazo[1,2-a]pyridine] | 1.6 |
| Cc1cc(Cc2nnc(-c3ccccc3)c(-c3ccccc3)n2)n[nH]1 [Compound 23, 3-((5-Methyl-1H-pyrazol-3-yl)methyl)-5,6-diphenyl-1,2,4-triazine] | 2.26 |
| FC(F)(F)Oc1ccccc1-c1cnc(Cc2c[nH]c3ccccc23)nn1 [Compound 27, 3-((6-(2-(Trifluoromethoxy)phenyl)-1,2,4-triazin-3-yl)methyl)-1H-indole] | 1.91 |
| CNS(=O)(=O)c1ccc(-c2nc(Cc3c[nH]c4ccccc34)nnc2-c2ccccc2)cc1 [Compound 33, 4-(3-((1H-Indol-3-yl)methyl)-6-phenyl-1,2,4-triazin-5-yl)-N-methylbenzenesulfonamide] | 2.83 |
| CS(=O)(=O)c1ccc(-c2nnc(Cc3c[nH]c4ccccc34)nc2-c2ccccc2)cc1 [Compound 36, 3-((6-(4-(Methylsulfonyl)phenyl)-5-phenyl-1,2,4-triazin-3-yl)methyl)-1H-indole] | 3.12 |
| CC(=O)OCc1ccc(-c2nc(Cc3c[nH]c4ccccc34)nnc2-c2ccccc2)cc1 [Compound 37, 4-(3-((1H-Indol-3-yl)methyl)-6-phenyl-1,2,4-triazin-5-yl)benzyl Acetate] | 3.92 |
| CC(=O)OCc1ccc(-c2nnc(Cc3c[nH]c4ccccc34)nc2-c2ccccc2)cc1 [Compound 38, 4-(3-((1H-Indol-3-yl)methyl)-5-phenyl-1,2,4-triazin-6-yl)benzyl Acetate] | 3.68 |
| OCc1ccc(-c2nc(Cc3c[nH]c4ccccc34)nnc2-c2ccccc2)cc1 [Compound 39, (4-(3-((1H-Indol-3-yl)methyl)-6-phenyl-1,2,4-triazin-5-yl)phenyl)methanol] | 3.64 |
| OCc1ccc(-c2nnc(Cc3c[nH]c4ccccc34)nc2-c2ccccc2)cc1 [Compound 40, (4-(3-((1H-Indol-3-yl)methyl)-5-phenyl-1,2,4-triazin-6-yl)phenyl)methanol] | 4.24 |

| Compound | LLE |
| --- | --- |
| c1ccc(-c2nnc(Cc3c[nH]c4ccccc34)nc2-c2ccc(CN3CCOCC3)cc2)cc1 [Compound 41, 4-(4-(3-((1H-Indol-3-yl)methyl)-6-phenyl-1,2,4-triazin-5-yl)benzyl)morpholine] | 3.2 |
| c1ccc(-c2nc(Cc3c[nH]c4ccccc34)nnc2-c2ccc(CN3CCOCC3)cc2)cc1 [Compound 42, 4-(4-(3-((1H-Indol-3-yl)methyl)-5-phenyl-1,2,4-triazin-6-yl)benzyl)morpholine] | 3.97 |
| CN(C)Cc1ccc(-c2nc(Cc3c[nH]c4ccccc34)nnc2-c2ccccc2)cc1 [Compound 43, 1-(4-(3-((1H-Indol-3-yl)methyl)-6-phenyl-1,2,4-triazin-5-yl)phenyl)-N,N-dimethylmethanamine] | 1.8 |
| CN(C)Cc1ccc(-c2nnc(Cc3c[nH]c4ccccc34)nc2-c2ccccc2)cc1 [Compound 44, 1-(4-(3-((1H-Indol-3-yl)methyl)-5-phenyl-1,2,4-triazin-6-yl)phenyl)-N,N-dimethylmethanamine] | 2.28 |
| CC(=O)NCc1ccc(-c2nc(Cc3c[nH]c4ccccc34)nnc2-c2ccccc2)cc1 [Compound 45, N-(4-(3-((1H-Indol-3-yl)methyl)-6-phenyl-1,2,4-triazin-5-yl)benzyl)acetamide] | 3.56 |
| CC(=O)NCc1ccc(-c2nnc(Cc3c[nH]c4ccccc34)nc2-c2ccccc2)cc1 [Compound 46, N-(4-(3-((1H-Indol-3-yl)methyl)-5-phenyl-1,2,4-triazin-6-yl)benzyl)acetamide] | 4.61 |
| CS(=O)(=O)NCc1ccc(-c2nc(Cc3c[nH]c4ccccc34)nnc2-c2ccccc2)cc1 [Compound 47, N-(4-(3-((1H-indol-3-yl)methyl)-6-phenyl-1,2,4-triazin-5-yl)benzyl)methanesulfonamide] | 3.49 |
| CS(=O)(=O)NCc1ccc(-c2nnc(Cc3c[nH]c4ccccc34)nc2-c2ccccc2)cc1 [Compound 48, N-(4-(3-((1H-Indol-3-yl)methyl)-5-phenyl-1,2,4-triazin-6-yl)benzyl)methanesulfonamide] | 4.38 |
| COC(=O)c1ccc(-c2nc(Cc3c[nH]c4ccccc34)nnc2-c2ccccc2)cc1 [Compound 49, Methyl 4-(3-((1H-Indol-3-yl)methyl)-6-phenyl-1,2,4-triazin-5-yl)benzoate] | 2.2 |
| O=C(O)c1ccc(-c2nnc(Cc3c[nH]c4ccccc34)nc2-c2ccccc2)cc1 [Compound 52, 4-(3-((1H-Indol-3-yl)methyl)-5-phenyl-1,2,4-triazin-6-yl)benzoic Acid] | 2.65 |
| O=C(O)c1cccc(-c2nc(Cc3c[nH]c4ccccc34)nnc2-c2ccccc2)c1 [Compound 55, 3-(3-((1H-Indol-3-yl)methyl)-6-phenyl-1,2,4-triazin-5-yl)benzoic Acid] | 0.58 |
| c1ccc(-c2nnc(Cc3c[nH]c4cnccc34)nc2-c2cnccn2)cc1 [Compound 59, 3-((6-Phenyl-5-(pyrazin-2-yl)-1,2,4-triazin-3-yl)methyl)-1H-pyrrolo[2,3-c]pyridine] | 3.93 |
| c1ccc(-c2nc(Cc3c[nH]c4cnccc34)nnc2-c2cnccn2)cc1 [Compound 60, 3-((5-Phenyl-6-(pyrazin-2-yl)-1,2,4-triazin-3-yl)methyl)-1H-pyrrolo[2,3-c]pyridine] | 4.46 |
| c1ccc(-c2nnc(Cc3c[nH]c4cnccc34)nc2-c2ccnnc2)cc1 [Compound 61, 3-((6-Phenyl-5-(pyridazin-4-yl)-1,2,4-triazin-3-yl)methyl)-1H-pyrrolo[2,3-c]pyridine] | 4.78 |
| c1ccc(-c2nc(Cc3c[nH]c4cnccc34)nnc2-c2ccnnc2)cc1 [Compound 62, 3-((5-Phenyl-6-(pyridazin-4-yl)-1,2,4-triazin-3-yl)methyl)-1H-pyrrolo[2,3-c]pyridine] | 5.15 |
| c1ccc(-c2nnc(Cc3c[nH]c4cnccc34)nc2-c2ccc(CN3CCOCC3)cc2)cc1 [Compound 63, 4-(4-(3-((1H-Pyrrolo[2,3-c]pyridin-3-yl)methyl)-6-phenyl-1,2,4-triazin-5-yl)benzyl)morpholine] | 3.92 |
| COC(=O)c1ccc(-c2nc(Cc3c[nH]c4cnccc34)nnc2-c2ccccc2)cc1 [Compound 65, Methyl 4-(3-((1H-Pyrrolo[2,3-c]pyridin-3-yl)methyl)-6-phenyl-1,2,4-triazin-5-yl)benzoate] | 3.79 |
| COC(=O)c1ccc(-c2nnc(Cc3c[nH]c4cnccc34)nc2-c2ccccc2)cc1 [Compound 66, Methyl 4-(3-((1H-Pyrrolo[2,3-c]pyridin-3-yl)methyl)-5-phenyl-1,2,4-triazin-6-yl)benzoate] | 3.44 |
| CNC(=O)c1ccc(-c2nc(Cc3c[nH]c4cnccc34)nnc2-c2ccccc2)cc1 [Compound 67, 4-(3-((1H-Pyrrolo[2,3-c]pyridin-3-yl)methyl)-6-phenyl-1,2,4-triazin-5-yl)-N-methylbenzamide] | 3.94 |
| CNC(=O)c1ccc(-c2nnc(Cc3c[nH]c4cnccc34)nc2-c2ccccc2)cc1 [Compound 68, 4-(3-((1H-Pyrrolo[2,3-c]pyridin-3-yl)methyl)-5-phenyl-1,2,4-triazin-6-yl)-N-methylbenzamide] | 4.75 |
| O=C(NCCO)c1ccc(-c2nc(Cc3c[nH]c4cnccc34)nnc2-c2ccccc2)cc1 [Compound 69, 4-(3-((1H-Pyrrolo[2,3-c]pyridin-3-yl)methyl)-6-phenyl-1,2,4-triazin-5-yl)-N-(2-hydroxyethyl)benzamide] | 4.86 |

Same assay, conditions: LLE = pIC50 – Log D7.4

| Compound | LLE |
| --- | --- |
| c1ccc(-c2nc(Cc3c[nH]c4ccccc34)nnc2-c2ccc(CN3CCOCC3)cc2)cc1 [Compound 42, 4-(4-(3-((1H-Indol-3-yl)methyl)-5-phenyl-1,2,4-triazin-6-yl)benzyl)morpholine] | 4.44 |
| CNC(=O)c1ccc(-c2nnc(Cc3c[nH]c4cnccc34)nc2-c2ccccc2)cc1 [Compound 68, 4-(3-((1H-Pyrrolo[2,3-c]pyridin-3-yl)methyl)-5-phenyl-1,2,4-triazin-6-yl)-N-methylbenzamide] | 4.58 |
